Measurements as given in ChEMBL document CHEMBL4368878 (Medchemcomm, 2018).

Protein sequences, listed by entry. Tags and fused reporters are not part of them.
UniProt P34972, whole entry: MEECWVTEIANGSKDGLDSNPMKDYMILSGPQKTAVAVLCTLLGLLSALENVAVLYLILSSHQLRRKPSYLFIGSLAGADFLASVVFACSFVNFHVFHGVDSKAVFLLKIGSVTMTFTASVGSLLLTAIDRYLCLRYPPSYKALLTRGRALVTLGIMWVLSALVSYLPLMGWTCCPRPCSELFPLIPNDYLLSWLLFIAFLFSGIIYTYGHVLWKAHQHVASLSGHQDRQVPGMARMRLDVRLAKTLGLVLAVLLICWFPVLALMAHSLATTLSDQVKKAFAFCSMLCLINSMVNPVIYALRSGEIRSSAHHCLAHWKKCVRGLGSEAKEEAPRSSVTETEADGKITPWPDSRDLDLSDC

Target: Cannabinoid receptor 2 (Homo sapiens, UniProt P34972)
Test: Displacement of [3H]CP55940 from recombinant human CB2 receptor expressed in HEK293 cell membranes at 10 uM measured after 90 mins relative to control

`Cc1ccc2c(c1)nc(Cn1nnc3ccccc31)n2CCN(C)C` gave an inhibition of 17.3%.
